Some of the results follow. Results filed as inconclusive are left out. Activity calls are given as the source filed them. Calls come from the whole dose curve; as a rule, active = well fitted inhibition curve with a large enough effect; inconclusive = small, poorly fitted or top-dose-only effect, or effect the other way, or another doubt; inactive = no such curve, though single readings can be large or run the other way.

The target in this test is Lysosomal alpha-glucosidase (Homo sapiens) (UniProt P10253). Briefly: qHTS Assay for Inhibitors of Human alpha-Glucosidase as a Potential Chaperone Treatment of Pompe Disease.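 Note: plate controls were uninhibited enzyme wells for no effect and no-enzyme background for full effect.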 The conditions noted are these: purified human GAA, 4-MU-alpha-glucoside fluorescence; at 76.9 µM (top of the series). Background: qHTS replaces the single test concentration by a dilution series.
Regarding `Cc1nc2ccc3ccccc3c2s1.O=[N+]([O-])c1cc([N+](=O)[O-])c(O)c([N+](=O)[O-])c1`, the activity change, negative = inhibition is inactive: -12.5%.

With `O=[N+]([O-])c1cc([N+](=O)[O-])c(-n2nnc3ccccc32)c([N+](=O)[O-])c1`, the activity change, negative = inhibition is inactive: 0.583%.

`CP(=O)(Nc1ccc(SC(F)(F)F)cc1)Oc1ccccc1` (centres undefined): the activity change, negative = inhibition is inactive: -3.85%.

`CCCOc1ccc(NP(C)(=O)Oc2ccc(Cl)cc2)cc1` (centres undefined): the activity change, negative = inhibition is inactive: -0.828%.

Take `COc1ccccc1OP(C)(=O)Nc1c(C)cccc1C` (centres undefined): the activity change, negative = inhibition is inactive: 1.65%.

Consider `CN1CCCCC1COC(=O)C1(O)c2ccccc2CCc2ccccc21` (centres undefined), for which the activity change, negative = inhibition was inactive: -1.84%.

For `CC1=NCCc2c1[nH]c1ccccc21.O=[N+]([O-])c1cc([N+](=O)[O-])c(O)c([N+](=O)[O-])c1`, the activity change, negative = inhibition is inactive: -0.819%.

For `CP(=O)(Nc1cccc(Br)c1)Oc1ccccc1` (centres undefined), the activity change, negative = inhibition is inactive: 2.55%.

Regarding `Cc1cc(C)cc(OP(C)(=O)Nc2ccccn2)c1` (centres undefined), the activity change, negative = inhibition is inactive: 1.1%.

Consider `Cc1ccc(C)c(NP(C)(=O)Oc2ccccc2)c1` (centres undefined), for which the activity change, negative = inhibition was inactive: -5.91%.

`Cc1cc(C)cc(OP(C)(=O)Nc2ccc(C)cc2C)c1` (centres undefined): the activity change, negative = inhibition is inactive: -3.73%.

Consider `CCOC(=O)c1ccc(NP(C)(=O)Oc2cc(C)cc(C)c2)cc1` (centres undefined), for which the activity change, negative = inhibition was inactive: -0.0284%.

In the case of `CCN(CC)CCCOC(=O)C(O)(c1ccccc1)c1ccccc1`, the activity change, negative = inhibition was inactive: 3.66%.

With `COc1ccc(OP(C)(=O)Nc2cccc(F)c2)cc1` (centres undefined), the activity change, negative = inhibition is inactive: -4.26%.

For the molecule `COc1ccccc1OP(C)(=O)Nc1cc(Cl)ccc1C` (centres undefined), the activity change, negative = inhibition was inactive: 5.99%.

As for `Cc1cc(C)cc(OP(C)(N)=O)c1` (centres undefined), the activity change, negative = inhibition was inactive: 1.11%.

On to `CCOC(=O)c1ccc(NP(C)(=O)Oc2ccccc2)cc1` (centres undefined), for which the activity change, negative = inhibition is inactive: 4.98%.

Regarding `Cc1ccc(NP(C)(=O)Oc2ccccc2)c(C)c1` (centres undefined), the activity change, negative = inhibition is inactive: 3.68%.

For `COc1ccccc1OP(C)(=O)Nc1ccc(C)cc1` (centres undefined), the activity change, negative = inhibition is inactive: -5.24%.

As to `Cc1cccc(C)c1OP(C)(N)=O` (centres undefined), the activity change, negative = inhibition is inactive: 2.51%.

Take `O=[N+]([O-])c1ccc2c(c1)C=Nc1ccccc1O2`: the activity change, negative = inhibition was inactive: -11.2%.

On to `COc1ccccc1OP(C)(=O)Nc1ccccc1` (centres undefined), for which the activity change, negative = inhibition was inactive: -8.39%.

Take `CP(=O)(Nc1ccccc1Br)Oc1ccccc1` (centres undefined): the activity change, negative = inhibition was inactive: -0.804%.

Consider `CP(=S)(Nn1cnnc1)Oc1ccccc1` (centres undefined), for which the activity change, negative = inhibition is inactive: -11.6%.

`CP(=O)(Nc1ccccn1)Oc1ccc(Cl)cc1` (centres undefined): the activity change, negative = inhibition is inactive: -2.47%.

Regarding `CCOP(C)(=S)SCC(=O)NC(C)C(=O)O` (centres undefined), the activity change, negative = inhibition is inactive: 0.0342%.

Consider `CCOC(=O)c1ccc(NP(C)(=O)Oc2ccc(OC)cc2)cc1` (centres undefined), for which the activity change, negative = inhibition is inactive: -3.12%.

With `Cc1cc(C)cc(OP(C)(=O)Nc2ccc(SC(F)(F)F)cc2)c1` (centres undefined), the activity change, negative = inhibition was inactive: 3.96%.

Take `CP(=O)(NC(=O)Nc1ccccc1)Oc1ccccc1` (centres undefined): the activity change, negative = inhibition is inactive: 6.59%.

For `CP(=O)(Oc1ccccc1)OC(c1ccccc1)C(F)(F)F` (centres undefined), the activity change, negative = inhibition was inactive: -4.24%.

Take `CN(C)C(=O)c1c([N+](=O)[O-])cc([N+](=O)[O-])cc1[N+](=O)[O-]`: the activity change, negative = inhibition is inactive: 1.49%.

Turning to `CP(=O)(Nc1ccc(Cl)cc1)Oc1ccc(F)cc1` (centres undefined), the activity change, negative = inhibition was inactive: 9.27%.

Consider `CC(C)(C)c1ccc(OP(C)(=O)O)cc1`, for which the activity change, negative = inhibition is inactive: 4.32%.

On to `COc1ccccc1OP(C)(=O)Nc1ccccc1Br` (centres undefined), for which the activity change, negative = inhibition is inactive: -4.47%.

With `CCc1ccc(OP(C)(=O)Nc2cccnc2)cc1` (centres undefined), the activity change, negative = inhibition is inactive: 6.5%.

In the case of `CP(=O)(Oc1ccccc1)N1CCOC1=O` (centres undefined), the activity change, negative = inhibition is inactive: -5.68%.

`COc1ccccc1OP(C)(=O)Nc1c(C)n(C)n(-c2ccccc2)c1=O` (centres undefined): the activity change, negative = inhibition is inactive: 2.19%.

For the molecule `COc1ccc(OP(C)(=O)Nc2ccc(Br)cc2)cc1` (centres undefined), the activity change, negative = inhibition is inactive: 7.43%.

As to `CCN(CC)CC(O)COC(=O)C(O)(c1ccccc1)C1CCCCC1` (centres undefined), the activity change, negative = inhibition was inactive: 6.4%.

Regarding `CP(=O)(OC12CC3CC(CC(C3)C1)C2)OC12CC3CC(CC(C3)C1)C2`, the activity change, negative = inhibition is inactive: -9.73%.

`CCOC(=O)c1ccc(NP(C)(=O)Oc2ccc(Cl)cc2)cc1` (centres undefined): the activity change, negative = inhibition was inactive: -7.94%.

Consider `CP(=O)(OCCOc1ccccc1)OCCOc1ccccc1`, for which the activity change, negative = inhibition was inactive: 3.38%.

`CP(=O)(Nc1ccc(Cl)cc1Cl)Oc1ccccc1` (centres undefined): the activity change, negative = inhibition is inactive: -2.71%.

On to `Cc1nc2ccc3ccccc3c2o1.O=[N+]([O-])c1cc([N+](=O)[O-])c(O)c([N+](=O)[O-])c1`, for which the activity change, negative = inhibition is inactive: -6.44%.

In the case of `COc1ccc(OP(C)(=O)Nc2ccccc2Br)cc1` (centres undefined), the activity change, negative = inhibition was inactive: -8.98%.

Take `COc1ccccc1OP(C)(=O)Nc1ccc(C)c(C)c1` (centres undefined): the activity change, negative = inhibition was inactive: -1.29%.

In the case of `Cc1cc(C)cc(OP(C)(=O)Nc2cccc(C(F)(F)F)c2)c1` (centres undefined), the activity change, negative = inhibition is inactive: 7.21%.

For `CCc1ccc(OP(C)(=O)O)cc1`, the activity change, negative = inhibition is inactive: 4.6%.

For `COc1ccccc1OP(C)(=O)Nc1ccc(C)cc1C` (centres undefined), the activity change, negative = inhibition is inactive: -3.57%.

For `CP(=O)(Nc1ccccn1)Oc1ccccc1` (centres undefined), the activity change, negative = inhibition is inactive: 1.04%.

With `O=[N+]([O-])c1cc([N+](=O)[O-])c(Nc2ccccn2)c([N+](=O)[O-])c1`, the activity change, negative = inhibition is inactive: 5.71%.

With `CN(C)CCOC(=O)C(O)(c1ccccc1)C1CCCC1` (centres undefined), the activity change, negative = inhibition is inactive: 2.05%.

For `COc1ccc(OP(C)(=O)Nc2ccccn2)cc1` (centres undefined), the activity change, negative = inhibition is inactive: -6.29%.

Take `CP(=O)(Nc1ccccc1F)Oc1ccccc1` (centres undefined): the activity change, negative = inhibition was inactive: -0.0979%.

In the case of `CP(=O)(Nc1ccccc1)Oc1ccc(F)cc1` (centres undefined), the activity change, negative = inhibition was inactive: -16.5%.

As for `CCN(CC)CCCOC(=O)C(O)(c1ccccc1)C1CCCCC1` (centres undefined), the activity change, negative = inhibition was inactive: -1.59%.

`COc1ccc(OP(C)(=O)Nc2ccc(SC(F)(F)F)cc2)cc1` (centres undefined): the activity change, negative = inhibition is inactive: -12%.

Consider `CCOC(=O)c1ccc(NP(C)(=O)Oc2ccc(F)cc2)cc1` (centres undefined), for which the activity change, negative = inhibition was inactive: -5.8%.

On to `COc1ccc(NP(C)(=O)Oc2ccccc2OC)cc1` (centres undefined), for which the activity change, negative = inhibition is inactive: -1.05%.

As to `CN(C)CCOC(=O)C(O)(c1ccccc1)C1CCCCC1` (centres undefined), the activity change, negative = inhibition was inactive: -5.91%.

For `COc1ccc(OP(C)(=O)Nc2cccc(Br)c2)cc1` (centres undefined), the activity change, negative = inhibition is inactive: 1.17%.

On to `Cc1ccccc1NP(C)(=O)Nc1ccccc1C`, for which the activity change, negative = inhibition is inactive: 5.48%.

As for `CP(=O)(Nc1ccc2c(c1)OCCO2)Oc1ccccc1` (centres undefined), the activity change, negative = inhibition is inactive: 0.241%.

Consider `CCOP(C)(=S)SCC(=O)NC(C)(CC)C(=O)O` (centres undefined), for which the activity change, negative = inhibition was inactive: 3.65%.

Source of the values: PubChem BioAssay AID1466 (National Center for Advancing Translational Sciences (NCATS), 2008).
